Experimental data from ChEMBL document CHEMBL1124901 (J Med Chem, 1990).

Target: Dopamine receptor
Assay: In vitro inhibition of [3H]-Spiperone binding to Dopamine receptor D2 in Macaca nemestrina striatal membranes (using L-tartrate salt of authentic raclopride)
Parameters: species or system Striatum, Membrane

Ki: 5.1 nM
Compound: CCN1CCC[C@H]1CNC(=O)c1c(O)c(Cl)cc(Cl)c1OC [RACLOPRIDE]
